This note sets out measurements from ChEMBL document CHEMBL5236544, “Furazans in Medicinal Chemistry” (J Med Chem, 2021).

SMILES strings stand for the structures. Several values for one entry are separate records, joined by “and”; a condition that tells them apart may be missing. Equal values may be shown once.

The subject of the assay is HeLa. Put plainly: Antitumor activity against human HeLa cells xenografted in mouse model assessed as reduction in tumor growth at 60 mg/kg bid relative to control. Also on record: scale not given: the % may be the effect or the level left. In general terms: Xenograft models place foreign cells or tissue in a host animal.

As to `COP(C)(=O)NCCCNc1nonc1/C(=N/O)Nc1ccc(F)c(Br)c1` (stereo unspecified), the Activity is 73% and 68%.
